# Yeast mating assay 1: variants of the scFv Ab-14

Data: MIT Lincoln Laboratory AlphaSeq set, Engelhart et al. 2022, doi:10.1038/s41597-022-01779-4, as distributed in FLAb.

Antigen: PDVDLGDISGINAS, a 14-residue peptide of the SARS-CoV-2 spike HR2 region.

The variants keep the heavy chain, the linker and the frameworks of Ab-14 (scFv order VH, a (GGGGS)3 linker, VL).
VH: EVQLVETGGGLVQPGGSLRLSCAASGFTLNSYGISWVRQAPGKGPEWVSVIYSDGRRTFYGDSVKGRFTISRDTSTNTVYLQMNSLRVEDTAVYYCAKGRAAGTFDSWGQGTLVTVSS
VL: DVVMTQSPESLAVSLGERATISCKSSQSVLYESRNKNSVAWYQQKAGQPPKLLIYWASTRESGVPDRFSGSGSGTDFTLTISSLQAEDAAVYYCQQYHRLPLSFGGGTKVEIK

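The starting antibody came from a phage panning campaign against this peptide. Library AAYL50 holds single substitutions and randomly drawn double and triple substitutions in the CDRs. The scFvs were displayed on barcoded MATa yeast, the peptide on MATalpha yeast. Binding brings cells together so that they mate, and sequencing counts the barcode pairs among the diploids. Read counts were normalised to the haploid input and turned into Kd by a linear fit to BCL2-family pairs of known affinity, for each replicate. Each pool was mated in three replicate cultures.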

Substitutions are numbered in sequence along the VL above, starting at 1 (not Kabat).
Every variant below is changed at H98 of the VL (sequential numbering).
Each Kd is an estimate from the mating assay, the geometric mean of the replicates in which the pair was seen; lower is stronger.
An entry "nd" has no value in the source: the pair was not observed among the diploids in any replicate. This suggests poor binding but is not conclusive.
Background: pairings of library AAYL50 with three empty control strains gave a value in 18% of cases (median 15 µM, 5th percentile 970 nM). Values in that range, when seen in few replicates, are hard to tell from nonspecific mating. Also given: how often the same scFv was detected with the empty control strains.

With V29C Y31N H98M the result was 2.6 nM (3 of 3 replicates; controls 1 of 9). With Q95R H98W S103F the result was nd (0 of 3 replicates; controls 1 of 9). For H98T, the assay gave 5.1 nM (3 of 3 replicates; controls 1 of 9). For Q96P H98Y, the assay gave 52 nM (3 of 3 replicates; controls 2 of 9). With S26V V29S H98E the result was 37 nM (3 of 3 replicates; controls 0 of 9). For N37M H98C P101Y, the assay gave 1.5 µM (3 of 3 replicates; controls 4 of 9). With H98E S103M the result was 1.1 µM (1 of 3 replicates; controls 0 of 9). With S38K A57Y H98K the result was 970 µM (1 of 3 replicates; controls 2 of 9). The variant A57M T59F H98K gave nd (0 of 3 replicates; controls 0 of 9).

The variant R60N H98S gave nd (0 of 3 replicates; controls 0 of 9). The variant A57K H98C showed 230 nM (3 of 3 replicates; controls 0 of 9). The variant K24Q Y31M H98M gave 7.7 nM (3 of 3 replicates; controls 1 of 9). The variant Y97W H98G S103L showed 290 µM (2 of 3 replicates; controls 7 of 9). With Y31H W56A H98M the result was 3.9 nM (3 of 3 replicates; controls 3 of 9). With Y31S K36I H98Y the result was 30 nM (3 of 3 replicates; controls 0 of 9). For N35R H98M R99A, the assay gave 170 nM (3 of 3 replicates; controls 4 of 9). The variant L30S H98C showed 60 nM (3 of 3 replicates; controls 2 of 9). The variant W56V H98F R99I gave 8.9 µM (2 of 3 replicates; controls 2 of 9).

With S26P H98W L102E the result was 7.1 nM (3 of 3 replicates; controls 2 of 9). The variant W56G A57V H98Q gave 530 pM (3 of 3 replicates; controls 7 of 9). The variant R60H Q96M H98K showed 1.4 µM (1 of 3 replicates; controls 0 of 9). For S38M H98Y L100V, the assay gave 23 µM (3 of 3 replicates; controls 8 of 9). The variant S33G S38V H98S gave nd (0 of 3 replicates; controls 1 of 9). With L30T Q96S H98R the result was 34 µM (2 of 3 replicates; controls 4 of 9). For E32M W56N H98G, the assay gave 2.0 nM (3 of 3 replicates; controls 3 of 9). With S25W Q96T H98I the result was 5.2 nM (3 of 3 replicates; controls 3 of 9). With S33E H98Q the result was 5.0 nM (3 of 3 replicates; controls 6 of 9).

The variant S26V R34Y H98V showed 63 nM (3 of 3 replicates; controls 1 of 9). The variant S25V W56Y H98A showed 750 pM (3 of 3 replicates; controls 2 of 9). The variant S62K H98M R99W gave 76 nM (3 of 3 replicates; controls 2 of 9). For S33A W56A H98N, the assay gave nd (0 of 3 replicates; controls 0 of 9). With K36T E61D H98I the result was 70 nM (3 of 3 replicates; controls 2 of 9). The variant R60E S62H H98K showed 7.8 µM (1 of 3 replicates; controls 1 of 9). With Q96W H98W the result was 5.6 nM (3 of 3 replicates; controls 0 of 9). With S25T W56K H98W the result was 7.1 nM (3 of 3 replicates; controls 0 of 9). The variant S38K A40E H98L showed nd (0 of 3 replicates; controls 2 of 9).

The variant Q27R S28E H98Q gave 11 nM (3 of 3 replicates; controls 2 of 9). The variant Q27K T59D H98R showed 12 µM (3 of 3 replicates; controls 5 of 9). With S38W H98L L100R the result was nd (0 of 3 replicates; controls 0 of 9). With T59E H98N P101K the result was nd (0 of 3 replicates; controls 0 of 9). With K36I Q96C H98L the result was nd (0 of 3 replicates; controls 1 of 9). The variant K36R R60P H98Q showed 450 nM (3 of 3 replicates; controls 3 of 9). With V29A E61V H98M the result was 1.1 nM (3 of 3 replicates; controls 1 of 9).